# Assay results from US20220289727A1, “ENZYME INHIBITORS” (KALVISTA PHARMACEUTICALS LIMITED, priority 2019, published 2022).
# Protein sequences, listed by entry. Tags and fused reporters are not part of them. Residues count along the entry.
# UniProt P00748, 20-372 partner limits assumed: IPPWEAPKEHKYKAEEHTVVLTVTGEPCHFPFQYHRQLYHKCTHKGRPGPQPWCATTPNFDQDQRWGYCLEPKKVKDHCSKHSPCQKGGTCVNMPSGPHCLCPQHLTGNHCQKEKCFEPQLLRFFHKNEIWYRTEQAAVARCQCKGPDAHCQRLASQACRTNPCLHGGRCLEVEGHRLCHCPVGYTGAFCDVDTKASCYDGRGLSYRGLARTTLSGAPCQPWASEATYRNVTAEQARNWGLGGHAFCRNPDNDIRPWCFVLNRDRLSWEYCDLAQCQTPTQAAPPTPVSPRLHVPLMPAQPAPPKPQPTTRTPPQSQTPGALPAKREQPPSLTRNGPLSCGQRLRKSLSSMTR
# UniProt P00748, 373-615 limits assumed: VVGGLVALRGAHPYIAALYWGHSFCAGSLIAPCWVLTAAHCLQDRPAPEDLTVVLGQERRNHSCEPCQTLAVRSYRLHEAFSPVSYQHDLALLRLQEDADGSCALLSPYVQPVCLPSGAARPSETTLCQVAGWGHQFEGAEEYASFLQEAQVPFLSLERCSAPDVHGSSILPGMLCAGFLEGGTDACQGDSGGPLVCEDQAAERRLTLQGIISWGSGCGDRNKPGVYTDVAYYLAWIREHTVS
# UniProt P03951, 19-387 partner limits assumed: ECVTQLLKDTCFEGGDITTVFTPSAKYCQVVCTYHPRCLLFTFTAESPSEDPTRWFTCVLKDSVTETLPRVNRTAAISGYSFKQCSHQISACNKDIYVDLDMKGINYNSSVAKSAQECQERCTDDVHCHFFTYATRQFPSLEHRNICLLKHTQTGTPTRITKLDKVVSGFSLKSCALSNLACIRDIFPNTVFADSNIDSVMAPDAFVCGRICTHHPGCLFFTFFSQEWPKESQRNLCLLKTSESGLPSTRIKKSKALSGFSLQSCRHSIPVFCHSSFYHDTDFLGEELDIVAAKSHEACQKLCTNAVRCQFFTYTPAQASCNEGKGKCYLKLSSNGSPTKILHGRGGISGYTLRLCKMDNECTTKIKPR
# UniProt P03951, 388-625 limits assumed: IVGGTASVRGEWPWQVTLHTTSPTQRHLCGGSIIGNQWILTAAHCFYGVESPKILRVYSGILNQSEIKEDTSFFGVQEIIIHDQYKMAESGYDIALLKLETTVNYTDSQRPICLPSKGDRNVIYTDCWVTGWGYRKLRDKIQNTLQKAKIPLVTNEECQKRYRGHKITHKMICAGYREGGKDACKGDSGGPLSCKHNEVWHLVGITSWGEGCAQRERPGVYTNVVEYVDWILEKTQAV
# Assays:
# Human Factor XIIa = Human Factor XIIa (Homo sapiens, UniProt P00748); assay: Determination of FXIIa inhibitory activity in vitro (fluorogenic substrate H-DPro-Phe-Arg-AFC); format: biochemical; conditions: read-out: Human FXIIa IC50, 25° C., residual enzyme activity (initial rate)
# Human FXIa = Human FXIa (Homo sapiens, UniProt P03951); assay: Determination of FXIa inhibitory activity in vitro (fluorogenic substrate Z-Gly-Pro-Arg-AFC); format: biochemical; conditions: read-out: Human FXIa IC50, selectivity, 25° C., residual enzyme activity (initial rate)
Compound,IC50 (Human Factor XIIa) [µM],IC50 (Human FXIa) [µM]
CC(=O)N(CC1CCN(C)CC1)c1c(C)csc1C(=O)NCc1ccc2c(N)nccc2c1,10 to 40,> 40
CC(=O)N(CC1CCN(C)CC1)c1c(C(=O)NCc2ccc3c(N)nccc3c2)sc(Cl)c1C,10 to 40,> 40
CC(=O)N(CC1CCN(C)CC1)c1cc(C)sc1C(=O)NCc1ccc2c(N)nccc2c1,10 to 40,> 40
